According to patent US9828641B2, “Systemic genotoxicity as blood marker for allergic inflammation” (The Regents of the University of California, priority 2013, dated 2017):

Legend:
[1] = 3% DSS, 3 cycles, severe symptoms and rectal prolapse
Protocol: Acute colitis was defined as a 7 day treatment, and chronic colitis as any further treatment including remission periods. Control animals received sterile acidified water only. Symptoms (weight loss, stool consistency, gross bleeding) were recorded daily for calculation of disease activity index (23).
The disease activity index (DAI) is the average combined score of weight loss (0-4), stool consistency (0-4), and bleeding (0-4), used to score clinical symptoms (23).

[2] = test system: normochromatic erythrocytes; assay: In vivo micronucleus assay; design: species or system mice; conditions: 3% DSS, p<0.01
[3] = test system: peripheral leukocytes; conditions: 7 days of DSS, p<0.05
[4] = test system: peripheral leukocytes; assay: Alkaline comet assay with and without hOgg1 incubation; type: in vivo, mice; conditions: 3% DSS
Protocol: Frozen blood was further diluted 1:15 in PBS before further preparation.
(§1) The enzyme hOgg1-modified comet assay was used for determination of oxidative DNA damage (25). Following lysis, samples were washed in an enzyme wash buffer (40 mM HEPES, 0.1M KCl, 0.5 mM EDTA, 0.2 mg/ml BSA, pH 8.0) then incubated at 37° C. for 10 min in either control (buffer with no hOGG1) or enzyme treated (buffer with hOGG1) solutions according to the manufacturer's recommendations. (New England Biolabs, Ipswich, Mass.). Both control and enzyme treated gels were then placed in electrophoresis buffer and processed identically to the alkaline comet assay.
The enzyme hOgg1-modified comet assay was used and carried out identically as previously described (1).
as §1, with “For determination of oxidative DNA damage the” for “The”, “(5). After lysis in the alkaline comet assay,” for “for determination of oxidative DNA damage (25). Following lysis,”, “recommendations” for “recommendations.”
Control animals received vehicle only.

For dextran sulfate sodium [DSS], the “Mortality in Atm−/− mice” value [1] was “Two out of ten”, the “Micronucleus formation vs non-treated animals” value ([2]; after the first cycle) was “significantly induced” and the “Micronucleus formation vs non-treated animals and levels before cycle 1” value ([2]; after the second and third cycles) was “further induced”. For the same substance, the “8-oxoguanine in peripheral leukocytes of Atm−/− mice” value [3] was “significant increases”, the “Nitrotyrosine in peripheral leukocytes of Atm−/− mice” value [3] was “significant increases” and the “Olive tail moment in wildtype mice (Example 2)” value ([4]; after the first cycle, p<0.001) was “increased”. For the same substance, the “Mean olive tail moment with hOgg1 incubation (oxidative base damage) vs hOgg1 incubated non-treated mice” value ([4]; after treatment cycles, p<0.05) was “higher” and the “Mean olive tail moment vs non-treated mice” value ([4]; end of each cycle, without hOgg1, p<0.01) was “significantly higher olive tail moments”.
